In BindingDB's records for doi:10.1124/jpet.105.089839 (F. Hoffmann-La Roche, 2005):
Where “and” joins values, the source holds several entries; their conditions need not be identical. Identical values can stand only once.

Sequences of proteins named here, by UniProt entry; tags and fusion partners are left off.
UniProt P41594, whole entry: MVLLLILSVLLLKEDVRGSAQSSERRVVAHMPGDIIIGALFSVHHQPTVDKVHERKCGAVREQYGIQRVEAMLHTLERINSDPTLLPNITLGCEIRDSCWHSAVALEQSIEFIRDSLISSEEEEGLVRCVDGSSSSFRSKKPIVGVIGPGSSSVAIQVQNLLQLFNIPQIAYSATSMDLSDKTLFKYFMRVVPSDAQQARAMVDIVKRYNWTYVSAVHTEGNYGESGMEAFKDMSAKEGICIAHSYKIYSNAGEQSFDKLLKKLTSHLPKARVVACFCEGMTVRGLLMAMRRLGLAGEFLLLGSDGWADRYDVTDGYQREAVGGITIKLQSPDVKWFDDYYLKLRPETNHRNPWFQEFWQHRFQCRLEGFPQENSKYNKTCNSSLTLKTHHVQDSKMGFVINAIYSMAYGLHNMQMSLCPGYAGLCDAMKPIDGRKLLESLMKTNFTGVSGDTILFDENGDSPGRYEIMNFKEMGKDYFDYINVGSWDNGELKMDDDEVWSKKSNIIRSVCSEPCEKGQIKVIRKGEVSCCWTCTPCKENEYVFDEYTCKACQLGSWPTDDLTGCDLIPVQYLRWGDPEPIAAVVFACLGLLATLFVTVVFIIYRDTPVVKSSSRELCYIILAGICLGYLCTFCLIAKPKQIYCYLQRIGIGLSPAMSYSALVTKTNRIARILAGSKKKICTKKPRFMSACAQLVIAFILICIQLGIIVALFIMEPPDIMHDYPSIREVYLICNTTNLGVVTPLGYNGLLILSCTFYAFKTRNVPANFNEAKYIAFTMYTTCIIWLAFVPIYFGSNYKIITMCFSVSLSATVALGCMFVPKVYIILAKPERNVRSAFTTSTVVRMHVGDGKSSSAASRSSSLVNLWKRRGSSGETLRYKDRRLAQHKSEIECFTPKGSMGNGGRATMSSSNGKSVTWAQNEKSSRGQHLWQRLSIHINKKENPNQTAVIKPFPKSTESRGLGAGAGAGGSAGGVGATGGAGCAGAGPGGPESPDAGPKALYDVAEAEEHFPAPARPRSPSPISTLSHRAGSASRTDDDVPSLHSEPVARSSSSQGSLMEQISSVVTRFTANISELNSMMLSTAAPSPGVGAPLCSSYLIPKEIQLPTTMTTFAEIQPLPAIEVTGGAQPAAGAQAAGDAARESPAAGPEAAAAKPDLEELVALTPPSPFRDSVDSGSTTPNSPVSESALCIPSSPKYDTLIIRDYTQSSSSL
UniProt P31424, whole entry: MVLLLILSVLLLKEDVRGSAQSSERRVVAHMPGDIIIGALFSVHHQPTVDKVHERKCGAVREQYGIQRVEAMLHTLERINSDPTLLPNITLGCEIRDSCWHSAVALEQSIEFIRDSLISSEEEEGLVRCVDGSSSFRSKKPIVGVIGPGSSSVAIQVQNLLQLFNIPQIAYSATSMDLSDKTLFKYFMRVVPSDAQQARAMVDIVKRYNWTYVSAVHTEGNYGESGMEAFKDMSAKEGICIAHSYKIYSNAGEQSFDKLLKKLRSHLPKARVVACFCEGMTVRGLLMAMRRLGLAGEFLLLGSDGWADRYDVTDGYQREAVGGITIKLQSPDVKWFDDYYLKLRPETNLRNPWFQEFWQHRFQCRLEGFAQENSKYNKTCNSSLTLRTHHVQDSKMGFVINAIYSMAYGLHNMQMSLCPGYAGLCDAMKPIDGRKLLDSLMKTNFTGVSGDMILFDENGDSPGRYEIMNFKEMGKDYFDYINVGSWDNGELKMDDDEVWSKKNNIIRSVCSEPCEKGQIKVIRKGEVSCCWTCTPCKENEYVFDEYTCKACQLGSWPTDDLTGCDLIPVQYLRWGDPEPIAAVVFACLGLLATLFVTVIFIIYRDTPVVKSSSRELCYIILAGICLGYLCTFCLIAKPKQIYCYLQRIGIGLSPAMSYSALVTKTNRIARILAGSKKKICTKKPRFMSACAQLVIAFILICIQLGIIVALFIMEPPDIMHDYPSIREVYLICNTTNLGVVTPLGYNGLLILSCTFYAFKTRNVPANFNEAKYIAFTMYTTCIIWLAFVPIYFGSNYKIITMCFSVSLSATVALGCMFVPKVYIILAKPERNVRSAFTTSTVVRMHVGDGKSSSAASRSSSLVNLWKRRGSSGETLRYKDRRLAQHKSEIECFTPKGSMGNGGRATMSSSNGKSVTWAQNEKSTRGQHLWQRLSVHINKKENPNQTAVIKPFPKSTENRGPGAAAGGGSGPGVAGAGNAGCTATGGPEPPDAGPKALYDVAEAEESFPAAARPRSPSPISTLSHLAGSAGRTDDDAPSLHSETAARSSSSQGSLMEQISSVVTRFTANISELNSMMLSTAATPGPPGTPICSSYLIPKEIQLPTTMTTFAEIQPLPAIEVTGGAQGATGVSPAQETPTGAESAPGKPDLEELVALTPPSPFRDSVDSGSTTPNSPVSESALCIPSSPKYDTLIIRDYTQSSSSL

Tests used:
[1] = molecular target: Metabotropic glutamate receptor 5 (Homo sapiens, UniProt P41594)
[2] = molecular target: Metabotropic glutamate receptor 5 (Rattus norvegicus, UniProt P31424)

SMILES	Ki [1]	Ki [2]
Cc1cccc(C#Cc2ccccc2)n1 [2-Methyl-6-phenylethynyl-pyridine]	6.7 nM and 3.3 nM and 28 nM	8.7 nM and 3.1 nM
Cc1nc(C#Cc2cccnc2)cs1 [3-(2-(2-methylthiazol-4-yl)ethynyl)pyridine]	14.1 nM and 5.3 nM	17.8 nM and 5.4 nM
